Data on one compound can be found in patent US20150209364A1, “METHOD FOR TREATING EPIDERMOID CARCINOMA” (Johnpro Biotech Inc., priority 2011, published 2015).

The subject of the experiment is gefitinib-resistant A431 cells. The experiment is described as follows: Annexin V/PI cell apoptosis assay in A431 cells. The note with it: 48 hours, 5 μM gefitinib, 10 μM chloroquine, 10 nM rapamycin, FIG. 1. It counts as cell-based. Here is the method:
Each experiment was performed in triplicate, and the results were expressed as mean±SD.

Consider `COc1cc2ncnc(Nc3ccc(F)c(Cl)c3)c2cc1OCCCN1CCOCC1` [gefitinib], for which the “percentage of apoptotic cells” value is “about 50%”.
